“And” between values parts separate entries of the source, which are not always exact repeats. Equal entries are not always repeated. This is a selection; strong and weak results do not stand in their true shares. The source made the active and inactive calls. The call rests on the fitted dose curve; in most records, active means well fitted activation curve with a large enough effect; inconclusive means small, poorly fitted or top-dose-only effect; inactive means no such curve, though single readings can be large or run the other way.
Test: qHTS Multiplex Assay to Identify Dual Action Probes in a Cell Model of Huntington: Cytoprotection (ATP);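 further: toxic huntingtin expression switched on by the ecdysone agonist tebufenozide; % of control where 0% means no effect; nearly all actives have a fitted effect of over 45% in size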
Conditions: PC12 HTT-Q103 induced, ATP luminescence, 40 h; at 56.4 µM (top of the series)
Source text: NIH Chemical Genomics Center [NCGC]
NIH Molecular Libraries Probe Production centers Network [MLPCN]
Assay Submitter (PI): Wei Zheng
Huntington's disease is a neurodegenerative disorder caused by a trinucleotide repeat expansion in Exon 1 of the Huntingtin gene. The CAG trinucleotide encodes glutamine and polyglutamine expansions cause cell death in selective areas of the brain. Huntington polyglutamine repeats have the tendency to form aggregates which are observable in later stages of the disease. The exact nature of the aggregates, whether toxic, protective, or insignificant, is unclear.
A stable PC12 cell line containing a gene fusion of Exon 1 of the Huntingtin gene linked to GFP under the control of the inducible ecdysone promoter were used as the cell-based model of Huntington Disease for high throughput screening. Exon 1 of the Huntingtin gene contained an expansion of 103 polyglutamines (Q103) which, when expressed, caused cell death and distinct, bright GFP aggregates. […] The cell death were quantified with a measurement of ATP content in the cells. […]
We optimized this assay in a homogeneous 1536 well format. A quantitative high throughput screen (qHTS) was conducted on the PC12 cells which were induced to express the toxic fusion construct. Small molecules which prevented cell death were identified by using a luminescent ATP quantification method (Perkin Elmer's ATPlite). […]

Row | SMILES | cytoprotection (ATP increase)
1 | O=[N+]([O-])C(Cl)(Cl)Cl | inactive: -7.93%
2 | CN(CCCl)CCCl | inactive: -62.9% and inactive: -269%

Reference: PubChem BioAssay AID1471 (National Center for Advancing Translational Sciences (NCATS), 2008)
